Source: PubChem BioAssay
The list is not random: actives were taken first. Their share in the collection is about 1.3%.
Yeast UUG start – modulators of yeast start codon fidelity, primary screen, whole organism, S. cerevisiae, single point, plate reader | AID 602363, 2012 | actives 0.13% (n = 350,000) | activity score, % at 18.7 µM | S. cerevisiae UUG-firefly luciferase reporter, luminescence/redox ratio;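 active means replicate mean at a twofold rise or more, about +100% in these data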;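 further: firefly luciferase made from a UUG start codon reports start codon fidelity; reporter light over untreated wells divided by growth signal over untreated wells; some hits fall short of that in this replicate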
SR-BI HDL uptake – blocks mouse SR-BI lipid uptake from DiI-HDL. 0.96% of 320,000 active. AID 488896. Q61009. inhibition, % at 12.5 µM. ldlA[mSR-BI] CHO cells, DiI-HDL uptake fluorescence, 3 h;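 active means mean replicate inhibition of at least 70% and a set share of replicates each scoring 70 or more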;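 further: 0% = median of neutral control wells and 100% = median of positive control wells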
INS-1E GSIS act – GLuc luminescence reporter in INS-1E cells, primary screen for activators of glucose-dependent secretion of insulin | activation, % at 16.6 µM | 0.61% of 370,000 active | INS-1E GLuc reporter insulin secretion, 2-3 h;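 active means lowest replicate activation of at least 40%, so every replicate reaches that level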;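 further: 0% = median of neutral control wells and 100% = median of IBMX positive control wells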
SR-BI uptake up – enhances SR-BI lipid uptake from DiI-HDL; CHO ldlA[mSR-BI] cells, DiI-HDL uptake fluorescence, 3 h; 100 = double the neutral-control signal; 0.096% of 320,000 active; activation, % at 12.5 µM;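 active means mean replicate activation of at least 60% and every replicate at or above 60%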;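 further: 0% = median plate neutral-control signal and 100% = twice that signal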
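Test system: SR-BI-overexpressing, LDLR-lacking CHO cells; Medium: Ham's F12 with 0.5% BSA, HEPES 25 mM, pH 7.4; Schedule: 3 h, 37 °C; Technique: bottom-read fluorescence, 550/595 nm.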
Numbers without * were called inactive; · = not tested or not shown; + = active, no number; ! = not active in a repeat.

1	C=CCn1c(-c2csc(-c3ccc(OC)c(OC)c3)n2)n[nH]c1=S
2	Cc1noc(C)c1NC(=O)Nc1ccc2c(c1)C(=O)N([C@H](C)CO)C[C@H](C)[C@H](CN(C)C(=O)c1ccccc1)OCCCC[C@@H](C)O2
3	C[C@@H]1CCCCO[C@H](CN(C)S(=O)(=O)c2ccc(F)cc2)[C@@H](C)CN([C@H](C)CO)C(=O)c2cc(NC(=O)CCCCCC(=O)Nc3ccccc3N)ccc2O1
4	COc1cccc(C(=O)Nc2ccc3c(c2)OC[C@@H](C)N(C(C)=O)C[C@H](C)[C@@H](OC)CN(C)C3=O)c1
5	Fc1cccc(-c2cc3nc4c(c(N5CCOCC5)n3n2)CCCC4)c1
6	Fc1cccc(-c2cc3nc4c(c(NCc5ccco5)n3n2)CCCC4)c1
7	Clc1cccc(-c2cc3nc4c(c(N5CCOCC5)n3n2)CCCC4)c1
8	CCCNC(=O)N1CC2(C1)[C@H](c1ccccc1)[C@@H](CO)N2CC1CCOCC1
Compound | 1 | 2 | 3 | 4 | 5 | 6 | 7 | 8
Yeast UUG start | · | 8 | -4 | · | · | -31 | -19 | ·
SR-BI HDL uptake | 5 | · | · | · | 72* | 44 | 77* | ·
INS-1E GSIS act | 83* | 8 | -3 | -9 | -31 | 18 | · | -3
SR-BI uptake up | -5 | · | · | · | -72 | -44 | -77 | ·

9	C/C=C/c1ccc(C2[C@@H]3CN(C(=O)Nc4ccc(F)cc4)C[C@H]2N3)cc1 (stereo partly specified)
10	C/C=C/c1ccc(C2[C@@H]3CN(C(=O)Nc4ccc(C(F)(F)F)cc4)C[C@H]2N3)cc1 (stereo partly specified)
11	O=C(Nc1ccc(C(F)(F)F)cc1)N1[C@@H]2CNC[C@H]1C2c1ccc(/C=C/c2ccccc2)cc1 (stereo partly specified)
12	O=C(Nc1ccc2c(c1)OCO2)N1C[C@@H]2N[C@H](C1)C2c1ccc(C=Cc2ccccc2)cc1 (stereo partly specified)
13	O=C(Nc1ccc(F)cc1)N1C[C@@H]2N[C@H](C1)C2c1ccc(/C=C/c2ccccc2)cc1 (stereo partly specified)
14	C[C@H](CO)N1C[C@H](C)[C@H](CN(C)S(C)(=O)=O)OCCCC[C@H](C)Oc2ccc(NC(=O)c3ccccc3)cc2C1=O
15	COc1ccc(NC(=O)N(C)C[C@H]2Oc3ccc(NC(=O)C4CCCCC4)cc3C(=O)N([C@H](C)CO)C[C@H]2C)cc1
16	CCCc1[nH]nc2c1C(c1ccc(OCCN3CCOCC3)c(OC)c1)C(C#N)=C(N)O2 (stereo unspecified)
Compound | 9 | 10 | 11 | 12 | 13 | 14 | 15 | 16
Yeast UUG start | · | · | · | · | · | -8 | 7 | -17
SR-BI HDL uptake | · | · | · | · | · | · | · | 25
INS-1E GSIS act | -15 | 190*! | +! | 89*! | -17 | 9 | -7 | ·
SR-BI uptake up | · | · | · | · | · | · | · | -25

An excerpt of these results, with values under each structure:
Every second line gives: Yeast UUG start | SR-BI HDL uptake | INS-1E GSIS act | SR-BI uptake up
9. C/C=C/c1ccc(C2[C@@H]3CN(C(=O)Nc4ccc(F)cc4)C[C@H]2N3)cc1 (stereo partly specified)
  · | · | -15 | ·
10. C/C=C/c1ccc(C2[C@@H]3CN(C(=O)Nc4ccc(C(F)(F)F)cc4)C[C@H]2N3)cc1 (stereo partly specified)
  · | · | 190*! | ·

(further entries)
17	CCOc1cc(C2C(C#N)=C(N)SC(N)=C2C#N)ccc1OCCN1CCOCC1
18	CO[C@H]1CN(C)C(=O)c2ccc(NC(=O)c3ccc(F)cc3)cc2OC[C@@H](C)N(C)C[C@H]1C
19	Cc1nnc2n1N=CC=C(c1ccccc1)S2
20	CS(=O)(=O)N1[C@H](CO)[C@@H](c2ccccc2)[C@@H]1C#N
21	COc1cccc(OCCNC(=O)c2cc([N+](=O)[O-])cc([N+](=O)[O-])c2)c1
22	Cc1ccc(OCCNC(=O)c2cc(C(=O)NCCOc3ccc(C)cc3)cc([N+](=O)[O-])c2)cc1
23	CNC(=O)c1sc2nc(-c3ccc(OC)cc3)cn2c1C
24	COc1ccc(-c2cn3c(C)c(C(=O)Nc4cc(NC(C)=O)ccc4OC)sc3n2)cc1
Compound | 17 | 18 | 19 | 20 | 21 | 22 | 23 | 24
Yeast UUG start | 0 | -11 | -7 | -10 | · | -7 | -10 | 6
SR-BI HDL uptake | -2 | · | -21 | · | -10 | 71* | 10 | 75*
INS-1E GSIS act | 82* | -2 | 41* | 17 | 3 | -14 | · | ·
SR-BI uptake up | 2 | · | 21 | · | 10 | -71 | -10 | -75

25	COCCCn1c(SCC(=O)Nc2ccc(NC(=O)c3ccco3)c(OC)c2)nc2ccccc2c1=O
26	O=C(CSc1nc2ccccc2c(=O)n1CC1CCCO1)NCc1ccccc1 (stereo unspecified)
27	O=c1c2ccccc2nc(-c2ccco2)n1Cc1ccccc1
28	O=C(CSc1nc2ccccc2c(=O)n1Cc1ccccc1)NCc1ccco1
29	CCOCCCn1c(SCC(=O)Nc2ccccc2OC)nc2ccccc2c1=O
30	c1ccc(Cn2c(-c3ccco3)nc3nc4ccccc4nc32)cc1
31	O=C(C[C@H]1C=C[C@@H](NC(=O)CN2CCOCC2)[C@H](CO)O1)NC1CCCCC1
32	COc1ccc2c3c([nH]c2c1)[C@H](CO)N(Cc1ccccc1)CC31CCN(CC2CC2)CC1
Compound | 25 | 26 | 27 | 28 | 29 | 30 | 31 | 32
Yeast UUG start | -15 | -10 | -16 | -17 | -12 | -8 | 2 | ·
SR-BI HDL uptake | 74* | -15 | 4 | 2 | 21 | 4 | · | ·
INS-1E GSIS act | · | 143* | 64* | 81* | -14 | · | 7 | 14
SR-BI uptake up | -74 | 15 | -4 | -2 | -21 | -4 | · | ·
